Assay outcomes: PubChem BioAssay, National Center for Advancing Translational Sciences (NCATS)
An excerpt weighted towards active compounds, which were near 2.4% of everything screened.
Tb PGK inh: T. brucei PGK inhibition; P07378; PGK/GAPDH coupled, Kinase-Glo luminescence, 60 min; Potency, µM (doses to about 57.5 µM), for inactives: at the highest dose activity change, negative = inhibition, usual class: inhibitors; 0.043% of 380,000 active; note: % is set by controls: 0 for no effect and ±100 for the full control effect; nearly all actives have a fitted effect of over 60% in size
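Luminescent ATP detection (Kinase-Glo Plus) follows a 60-minute room-temperature incubation, with wells lacking PGK as controls. Buffer: 100 mM TEA (pH 7.6), 5 mM MgCl2, 0.01% Tween-20. Coupling enzyme GAPDH (100 nM final) supplies unstable 1,3-BPG in-well.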
Tb PFK inh: inhibitors of T. brucei phosphofructokinase; O15648; 0.17% of 330,000 active; Potency, µM (titrated, usually from 57.5 µM), for inactives: at the highest dose activity, negative = inhibition, hits mostly inhibitors; T. brucei PFK, ADP-Glo luminescence;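 note: 0% = uninhibited 1x PFK enzyme wells and -100% = no-enzyme wells; nearly all actives have a fitted effect of over 60% in size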
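Activity is normalized to no-enzyme wells (full inhibition) and 1.25 nM enzyme wells (no inhibition). Reaction: 0.5 mM F6P, 0.1 mM ATP, 45 min RT, ADP-Glo luminescence; concentration-response curves fitted and classed by quality.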
Rango complex inh: inhibitors of Rango-importin beta complex formation. Q14974. Rango CFP/YFP FRET sensor + importin beta, 45 min. Potency, µM (doses to about 92.2 µM), inactives show top-dose inhibition of complex formation. 0.031% of 340,000 active; calls by dose curve;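 note: 0% = DMSO wells and 100% = buffer wells lacking importin beta; nearly all actives have a fitted effect of over 15% in size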
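FRET biosensor Rango (snurportin 1 IBB between N-terminal EYFP and C-terminal Cerulean), 50 nM in PBS/1 mM DTT/0.02% Tween-20/0.1% BSA, preincubated 5 min RT with compound; 0.125 microM importin beta added, 45 min RT, CFP/YFP FRET ratio read.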
Rango release inh: inhibition of RanGTP-driven Rango-importin beta dissociation; 0.071% of 340,000 active; Potency, µM (series often up to 46.1 µM), for inactives: at the top dose activity change, negative = inhibition; Biochemical FRET Rango-importin beta, RanGTP-induced dissociation; O95149+P62826; calls by dose curve; note: % of control where 0% means no effect; nearly all actives have a fitted effect of over 45% in size
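Two FRET readings bracket the reaction: one 5 min after compound meets Rango–importin beta, another 45 min after RanGTP-RCC1 (0.6 uM Ran, 0.2 uM RCC1, 2 mM GTP) is added. Only the second defines inhibition.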
ELG1 DNA repair: ELG1-dependent DNA repair inhibition. 2.3% of 330,000 active. Potency, µM (top dose mostly 46.1 µM), for inactives: at the top dose activity change, negative = inhibition, usual class: inhibitors. HEK293T ELG1-luciferase reporter, luminescence, 16 h; DNA damage induced by 5-fluorouridine. AID 504467; note: % is set by controls: 0 for no effect and ±100 for the full control effect; nearly all actives have a fitted effect of over 55% in size
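5-Fluorouridine DNA damage + compound/DMSO, 2,000 cells/well, 16 h, 37 °C/5% CO2. ONE-Glo, 30 min RT, luminescence. Readout = decrease in reporter signal.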
PKM2 activator: increases activity of human pyruvate kinase M2 | P14618 | purified PKM2, Kinase-Glo ATP luminescence, activation; response scale: 0% is enzyme alone, no compound | Potency, µM (highest dose often 57.5 µM), inactives show at the highest dose activation, most hits filed as activators | 0.34% of 260,000 active | AID 1631; note: % is set by controls: 0 for no effect and ±100 for the full control effect; nearly all actives have a fitted effect of over 55% in size
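Purified hPK-M2 (>95% pure) converted ADP (0.1 mM final) to ATP with 0.5 mM PEP in 50 mM imidazole pH7.2, KCl, MgCl2, Tween 20, BSA; 1 h at room temperature. ATP detected by Kinase-Glo luminescence.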
Active calls of the source: *; i = inactive; ? = inconclusive; . = no result given; [ ] = another dose, or the depositor's remark. Unless noted, calls come from the whole dose curve; as a rule, active = well fitted curve in the direction sought with a large enough effect; inconclusive = small, poorly fitted or top-dose-only effect, or another doubt; inactive = no such curve, though single readings can be large; an effect the other way counts as inactive or inconclusive. Potency is the fitted concentration of half-maximal effect.

Letters: A = Tb PGK inh; B = Tb PFK inh; C = Rango complex inh; D = Rango release inh; E = ELG1 DNA repair; F = PKM2 activator
SMILES: CCOC(=O)C1C(C(C)=O)=C(c2ccccc2)c2ccccc2N1S(=O)(=O)C(F)(F)F (stereo not drawn)
  A: -5%	B: 9%	C: 3%	D: 1%	E: -10%	F: .

SMILES: COc1ccc(Cl)cc1NC(=O)CSc1nc(N2CCOCC2)nc(N2CCOCC2)n1
  A: -7%	B: 0%	C: 0%	D: 1%	E: 26µM*	F: -1%

SMILES: O=C(CSc1nc(N2CCOCC2)nc(N2CCOCC2)n1)Nc1ccc([N+](=O)[O-])cc1
  A: 2%	B: -1%	C: -3%	D: 0%	E: 16µM*	F: 8%

SMILES: O=C(CSc1nc(Nc2ccccc2)nc(N2CCOCC2)n1)Nc1ccc([N+](=O)[O-])cc1
  A: 6%	B: 1%	C: 6%	D: -10%	E: ?	F: 7%

SMILES: O=C(CSc1nc(Nc2ccccc2)nc(N2CCOCC2)n1)Nc1cccc([N+](=O)[O-])c1
  A: 2%	B: 0%	C: 0%	D: -6%	E: 21µM*	F: 3%

SMILES: O=C(CSc1nc2ccccc2c(=O)[nH]1)Nc1ccc(C(=O)O)cc1
  A: -16%	B: 13%	C: 1%	D: -2%	E: 22%	F: 7%

SMILES: O=C(CSc1nc2ccccc2c(=O)[nH]1)Nc1ccc([N+](=O)[O-])cc1
  A: -1%	B: -5%	C: -4%	D: -1%	E: 18µM*	F: .

SMILES: CC(=O)c1ccc(Nc2nc(N3CCOCC3)nc(N3CCOCC3)n2)cc1
  A: -2%	B: 0%	C: -3%	D: 8%	E: -24%	F: 4%[11.5 µM]

SMILES: CC(=O)Nc1ccc(/C(C)=N/Nc2nc(Nc3ccccc3)nc(N3CCOCC3)n2)cc1
  A: -10%	B: -8%	C: -2%	D: -3%	E: 6.5µM*	F: 1%

SMILES: CCOc1ccc(CN(C)C(=O)c2ccc(NC(=O)CC3SC(N4CCCC4)=NC3=O)cc2)cc1 (stereo not drawn)
  A: 2%	B: 1%	C: 1%	D: -2%	E: -27%	F: -8%

SMILES: CCOC(=O)c1c(C(=O)OCC)c(C)n(CCc2ccc(OC)c(OC)c2)c1C
  A: -10%	B: -2%	C: 0%	D: 25%	E: 15µM*	F: 0%

SMILES: Cc1ccccc1OCC(=O)Nc1ccc(N2CCN(C(=O)c3ccco3)CC2)cc1
  A: 9%	B: 1%	C: 3%	D: 4%	E: 21µM*	F: 2%

SMILES: O=C(COc1ccc(Cl)cc1Cl)Nc1ccccn1
  A: ?	B: 17µM*	C: -6%	D: 1%	E: ?	F: -110%

SMILES: Cc1cccc(OCC(=O)Nc2ccc(N3CCN(C(=O)c4ccccc4)CC3)cc2)c1
  A: -5%	B: 0%	C: -6%	D: 3%	E: 18µM*	F: -7%

SMILES: Cc1cccc(OCC(=O)Nc2ccc(N3CCN(C(=O)c4ccco4)CC3)cc2)c1C
  A: 4%	B: 0%	C: -2%	D: 3%	E: -15%	F: 3%

SMILES: Cc1ccc(OCC(=O)Nc2ccc(N3CCN(C(=O)c4ccc(C)cc4)CC3)cc2)cc1
  A: -4%	B: 2%	C: -4%	D: -8%	E: ?	F: -1%

SMILES: CC(=O)N1CCN(c2ccc(NC(=O)COc3ccc(Cl)cc3Cl)cc2)CC1
  A: -4%	B: -16%	C: 8%	D: -7%	E: 9.2µM*	F: -2%

SMILES: CC(=O)N1CCN(c2ccccc2NC(=O)COc2ccc(Cl)cc2Cl)CC1
  A: -18%	B: -6%	C: 0%	D: 7%	E: ?	F: 1%

SMILES: COc1cccc(CCNC(=O)c2c(O)nc3ccccn3c2=O)c1
  A: 9%	B: .	C: .	D: .	E: .	F: .

SMILES: COc1cccc(NC(=O)C2CCN(S(=O)(=O)c3cc(-c4noc(C)n4)ccc3C)CC2)c1
  A: -2%	B: .	C: .	D: .	E: .	F: .

SMILES: O=C(COc1ccccc1Cl)Nc1ccc(N2CCN(C(=O)c3ccccc3)CC2)cc1
  A: 2%	B: -5%	C: 0%	D: 1%	E: 13µM*	F: -3%

SMILES: Cc1ccccc1C(=O)Nc1ccc(N2CCN(C(=O)c3ccco3)CC2)cc1
  A: 2%	B: 1%	C: -1%	D: 59%	E: -19%	F: -12%

SMILES: Cc1ccc(C(=O)Nc2ccc(N3CCN(C(=O)c4ccco4)CC3)cc2)c(Cl)c1
  A: 4%	B: -2%	C: 1%	D: 15%	E: 18µM*	F: .

SMILES: CCC(=O)Nc1ccc(N2CCN(C(=O)c3cccs3)CC2)cc1
  A: .	B: ?	C: 3%	D: 43%	E: 0%	F: -2%

SMILES: O=C(COc1ccccc1[N+](=O)[O-])Nc1ccc(N2CCN(C(=O)c3cccs3)CC2)cc1
  A: 0%	B: -2%	C: 4%	D: 1%	E: 18µM*	F: 1%

The closing two compounds of the part before lead into the next:
Letters: A = Tb PGK inh; B = Tb PFK inh; C = Rango complex inh; D = Rango release inh; E = ELG1 DNA repair; F = PKM2 activator
SMILES: CCC(=O)Nc1ccc(N2CCN(C(=O)c3cccs3)CC2)cc1
  A: .	B: ?	C: 3%	D: 43%	E: 0%	F: -2%

SMILES: O=C(COc1ccccc1[N+](=O)[O-])Nc1ccc(N2CCN(C(=O)c3cccs3)CC2)cc1
  A: 0%	B: -2%	C: 4%	D: 1%	E: 18µM*	F: 1%

SMILES: C[C@H](CO)N1C[C@H](C)[C@@H](CN(C)C(=O)Nc2ccccc2)Oc2c(NS(=O)(=O)c3cccs3)cccc2C1=O
  A: -4%	B: 1%	C: 0%	D: 12%	E: 13%	F: .

SMILES: CCN(CC)C(=O)Cn1cc(C(=O)C(=O)N2CC=C(c3ccccc3)CC2)c2ccccc21
  A: -6%	B: -8%	C: 37µM*	D: -1%	E: -1%	F: 1%

SMILES: CCN(CC)C(=O)Cn1cc(C(=O)C(=O)N2CCN(C)CC2)c2ccccc21
  A: 8%	B: 2%	C: 1%	D: 2%	E: 12%	F: -8%

SMILES: COc1ccccc1C1CC(c2ccccc2)=NN1S(=O)(=O)c1ccccc1 (stereo not drawn)
  A: 3%	B: -4%	C: 7%	D: -21%	E: 23µM*	F: -13%

SMILES: CS(=O)(=O)Nc1cccc(C2=NN(S(=O)(=O)c3ccccc3)C(c3ccco3)C2)c1 (stereo not drawn)
  A: i	B: 3%	C: 0%	D: -18%	E: -16%	F: 22µM*

SMILES: O=C(c1ccco1)N1N=C(c2cccs2)CC1c1ccc(F)cc1 (stereo not drawn)
  A: i	B: -2%	C: -4%	D: 4%	E: 0%	F: -10%

SMILES: CCS(=O)(=O)Nc1cccc(C2=NN(C(C)=O)C(c3cccs3)C2)c1 (stereo not drawn)
  A: 0%	B: 1%	C: 2%	D: 2%	E: ?	F: 14µM*

SMILES: CCS(=O)(=O)Nc1cccc(C2=NN(S(=O)(=O)c3ccccc3)C(c3ccco3)C2)c1 (stereo not drawn)
  A: -2%	B: 0%	C: -6%	D: -14%	E: 12%	F: ?

SMILES: CC(=O)N1N=C(c2cccc(NS(C)(=O)=O)c2)CC1c1cccs1 (stereo not drawn)
  A: -12%	B: 15%	C: -1%	D: -1%	E: -11%	F: ?

SMILES: CS(=O)(=O)Nc1ccc(C2=NN(C(=O)c3ccco3)C(c3ccc(F)cc3)C2)cc1 (stereo not drawn)
  A: -10%	B: -4%	C: -4%	D: 4%	E: ?	F: 13µM*

SMILES: Cc1ccc(NC(=O)C2CCCN(C(=O)c3cnn(-c4ccc(F)cc4)c3-n3cccc3)C2)c(Cl)c1 (stereo not drawn)
  A: -8%	B: .	C: .	D: .	E: .	F: .

SMILES: COc1ccc(C)cc1NC(=O)NCc1ccc2c(c1)CCN2C(=O)c1ccccc1
  A: 0%	B: .	C: .	D: .	E: .	F: .

SMILES: CCC(=O)Oc1cc(C(C)(C)C)cc2cc(-c3nc(-c4ccc(OC)cc4OC)no3)c(=O)oc12
  A: -2%	B: .	C: .	D: .	E: .	F: .

SMILES: CC(=O)c1cc(C(=O)Nc2cc(C)cc(C)c2)c2ccccn12
  A: -7%	B: .	C: .	D: .	E: .	F: .

Among those listed so far, 2 contain an NH in an aromatic ring.
Letters: A = Tb PGK inh; B = Tb PFK inh; C = Rango complex inh; D = Rango release inh; E = ELG1 DNA repair; F = PKM2 activator
SMILES: O=C(CSc1nc2ccccc2c(=O)[nH]1)Nc1ccc(C(=O)O)cc1
  A: -16%	B: 13%	C: 1%	D: -2%	E: 22%	F: 7%

SMILES: O=C(CSc1nc2ccccc2c(=O)[nH]1)Nc1ccc([N+](=O)[O-])cc1
  A: -1%	B: -5%	C: -4%	D: -1%	E: 18µM*	F: .
